{
  "sequences": {"note": "Chains of the proteins cited; added tags and fusions are not shown. Residues count along the entry.", "UniProt P42676, 38-704": "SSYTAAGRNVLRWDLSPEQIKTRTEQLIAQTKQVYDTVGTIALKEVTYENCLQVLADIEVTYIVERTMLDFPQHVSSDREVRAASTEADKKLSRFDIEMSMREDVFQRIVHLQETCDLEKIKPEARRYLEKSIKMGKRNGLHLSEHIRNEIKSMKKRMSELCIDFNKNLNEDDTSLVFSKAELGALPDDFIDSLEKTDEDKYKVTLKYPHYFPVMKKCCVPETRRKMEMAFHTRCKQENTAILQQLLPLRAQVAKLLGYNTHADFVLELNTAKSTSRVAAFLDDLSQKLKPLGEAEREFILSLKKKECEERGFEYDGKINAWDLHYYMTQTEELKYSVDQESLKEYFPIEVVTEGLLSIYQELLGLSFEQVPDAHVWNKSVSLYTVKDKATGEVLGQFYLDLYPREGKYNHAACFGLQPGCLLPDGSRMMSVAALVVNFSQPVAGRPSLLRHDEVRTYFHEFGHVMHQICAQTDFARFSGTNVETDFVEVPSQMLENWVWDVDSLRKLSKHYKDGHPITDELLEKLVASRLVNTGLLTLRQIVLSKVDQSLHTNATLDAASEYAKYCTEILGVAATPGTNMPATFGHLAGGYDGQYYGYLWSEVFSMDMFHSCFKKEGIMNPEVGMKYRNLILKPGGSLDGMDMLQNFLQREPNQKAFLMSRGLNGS"},
  "source": "paper PMC4152863",
  "about": "(Regulatory peptides, 2013)",
  "key": {"[1]": {"target": "T1, novel, non-AT1, non-AT2 angiotensin binding site (neurolysin) (Rattus norvegicus, UniProt P42676)", "assay": "Inhibition or enhancement of PCMB-unmasked 125I-SI Ang II binding in membranes"}, "[2]": {"target": "T1, novel, non-AT1, non-AT2 angiotensin binding site (neurolysin)", "assay": "Unmasking of specific 125I-SI Ang II binding in membranes"}},
  "note": "Values joined by “and” are separate entries in the source; they are usually repeats but may differ in a detail not shown here. Equal entries are not always repeated.",
  "data": [
    {"substance": "thimerosal", "values": [
      {"measurement": "inhibition of PCMB unmasking of 125I-SI Ang II binding, primary screening", "setting": "[1]", "result": "Greater than 50%"},
      {"measurement": "inhibition of PCMB-unmasked 125I-SI Ang II binding, primary screening (in words)", "setting": "[1]", "result": "moderately inhibited"},
      {"measurement": "Rmax, unmasked binding relative to PCMB unmasked binding", "setting": "[2]", "result": "34.7±1.6% and 49.9±9.2%"},
      {"measurement": "unmasking of specific 125I-SI Ang II binding in the absence of PCMB (in words)", "setting": "[2]", "result": "unmasked non-AT1, non-AT2 binding independent of PCMB"}
    ]}
  ]
}
